According to paper PMC6602958, “Pharmacokinetics of anti-infectious reagents in silkworms” (Scientific Reports, 2019):

System: cytochrome P450
Assay: Decay of cytochrome P450 substrates in in vitro culture of the silkworm midgut (HPLC)
Experimental: Silkworm midgut was incubated in medium with cytochrome P450 substrates at 30 °C. The samples were collected, extracted by acetone, and evaporated. The amounts of substrates were determined by HPLC analysis.
Silkworms (5th instar, 5 days) were dissected in a buffer (10 mM HEPES/NaOH, 0.9% NaCl, pH 7.9), and isolated organs were incubated with 3 mL TC-100 medium containing 10% fetal bovine serum, 50 µg/ml gentamicin, and substrates for the metabolic reaction. Whole samples (medium and organ) were homogenized and extracted by equal volumes of acetone followed by evaporation. Extracted samples were dissolved in 50 mM NaOAc buffer and treated with beta-glucosidase to measure the fluorescence of metabolized 7-ethoxycoumarin[6]. […] Samples for HPLC were dissolved in 50% methanol. HPLC analysis was performed using a PEGASIL ODS SP column (φ4.5 mm × 250 mm) with isocratic elution at a flow rate of 1 ml/min.

[1] = midgut culture, 1 h, raw data of Fig. 3
[2] = midgut culture, 4 h, raw data of Fig. 3

Question: With `CO[C@H]1/C=C/O[C@@]2(C)Oc3c(C)c(O)c4c(O)c(c(/C=N/N5CCN(C)CC5)c(O)c4c3C2=O)NC(=O)/C(C)=C\C=C\[C@H](C)[C@H](O)[C@@H](C)[C@@H](O)[C@@H](C)[C@H](OC(C)=O)[C@@H]1C` [Rifampicin] as the compound, how does the “Metabolism in the silkworm midgut (in words)” value (in vitro organ culture, up to 20 h incubation) read?
Answer: Its value is “metabolized in the silkworm midgut”.

Question: What about the “HPLC peak area of substrate, Sample 2” value (midgut culture, 0 h, raw data of Fig. 3) of the same compound?
Answer: The value was 304932.

Question: What about the “HPLC peak area of substrate, Sample 1” value [1] of the same compound?
Answer: Its value is 270164.

Question: And the “HPLC peak area of substrate, Sample 2” value [1]?
Answer: Its value is 279934.

Question: And the “HPLC peak area of substrate, Sample 1” value [2]?
Answer: The value was 239359.

Question: What about the “HPLC peak area of substrate, Sample 2” value [2] of the same compound?
Answer: Its value is 211730.

Question: What about the “HPLC peak area of substrate, Sample 1” value (midgut culture, 20 h, raw data of Fig. 3) of the same compound?
Answer: The value was 86676.

Question: And the “HPLC peak area of substrate, Sample 1” value (silkworm (Bombyx mori))?
Answer: The value was 317015.

Question: And the “HPLC peak area of substrate, Sample 2” value (silkworm (Bombyx mori))?
Answer: Its value is 64653.
